Laboratory results reported in patent WO2020158863A1, “Combined drug of anthracycline compound-containing micelle preparation with immunostimulant” (priority 2019, dated 2020).

Tested on: GL261-luc
Assay: In vivo antitumor effect assay by orthotopic brain transplantation, GL261-luc (Experimental Example 4)
Parameters: species or system mouse

## COc1cccc2c1C(=O)c1c(O)c3c(c(O)c1C2=O)C[C@@](O)(C(=O)CO)C[C@@H]3O[C@H]1C[C@H](N)[C@@H](O)[C@H](C)O1 [Epi, Epirubicin hydrochloride]
Tail vein, Day 6, 10, 14, Fig. 4
  antitumor effect (luminescence intensity): no antitumor effect was confirmed
Transplantation = Day 0, Fig. 5
  survival (death of mice): all the mice died between Day30 and Day40

Counter-ions that a name gives are not always drawn.
